{"sequences": {"note": "The chains behind the UniProt entries cited, without tags or fusion partners.", "UniProt P35372, whole entry, species assumed": "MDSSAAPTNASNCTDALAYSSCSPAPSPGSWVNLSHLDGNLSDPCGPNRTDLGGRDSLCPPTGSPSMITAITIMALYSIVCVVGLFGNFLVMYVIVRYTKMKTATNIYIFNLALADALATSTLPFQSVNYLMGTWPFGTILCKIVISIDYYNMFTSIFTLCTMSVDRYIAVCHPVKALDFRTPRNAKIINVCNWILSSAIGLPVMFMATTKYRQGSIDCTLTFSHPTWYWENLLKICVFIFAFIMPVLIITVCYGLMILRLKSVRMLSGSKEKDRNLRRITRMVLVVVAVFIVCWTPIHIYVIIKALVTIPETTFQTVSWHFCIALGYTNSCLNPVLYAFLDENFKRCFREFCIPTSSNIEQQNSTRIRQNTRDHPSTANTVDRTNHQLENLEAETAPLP"}, "source": "patent US7988998B2", "about": "“Sustained-release tramadol formulations with 24-hour efficacy” (Labopharm Inc., priority 2002, dated 2011)", "origin": "cited, not measured here", "target": "μ-opioid receptor (Homo sapiens, UniProt P35372)", "settings": "higher affinity than racemic tramadol", "data": [{"smiles": "CN(C)C[C@H]1CCCC[C@]1(O)c1cccc(O)c1", "note": "[mono-O-desmethyltramadol (M1), mono-O-desmethyltramadol]", "values": [{"measurement": "affinity for the μ-opioid receptor relative to racemic tramadol", "value": "~200", "unit": "fold"}]}]}
